Results published in patent US8697715B2, “Serine/threonine kinase inhibitors” (Array BioPharma Inc., priority 2012, dated 2014).

Test system: PMA-stimulated P90RSK(Ser380) phosphorylation in HepG2 cells
Assay: Cellular P90RSK(Ser380) Phosphorylation Assay
Format: cell-based
Conditions: Homo sapiens, 1.5 hours compound incubation, PMA 100 ng/mL 30 minutes, normalized to GAPDH, single assay or mean of multiple assays, read-out: Biological Example 2 IC50
Description: Inhibition of PMA-stimulated P90RSK(Ser380) phosphorylation was determined by the following in vitro cellular mechanistic assay, which comprises incubating cells with a compound for 1.5 hours and quantifying fluorescent pP90RSK(Ser380) signal on fixed cells and normalizing to GAPDH signal.
HepG2 cells were obtained from ATCC and grown in DMEM supplemented with 10% fetal bovine serum. Cells were plated in 96-well plates at 35,000 cells/well and allowed to attach overnight at 37° C./5% CO2. Diluted compounds were then added at a final concentration of 0.5% DMSO. After 1.5 hours compound incubation, cells were stimulated with the addition of phorbol 12-myristate 13-acetate (“PMA”) at a final concentration of 100 ng/mL; the PMA stimulation was a 30-minute incubation at 37° C./5% CO2. After the 30-minute PMA stimulation, cells were washed with phosphate buffered saline (“PBS”) and fixed in 3.7% formaldehyde in PBS at room temperature for 15-20 minutes. This was followed by another wash in PBS and then permeabilization in 100% MeOH at room temperature for 10-15 minutes. Following the permeabilization incubation, cells were washed in PBS/0.05% Tween-20, followed by a block in Odyssey blocking buffer (LI-COR Biosciences) for at least 1 hour. […] Cells were then washed and analyzed for fluorescence at both wavelengths using the Odyssey Infrared Imaging System (LI-COR Biosciences). […]

How did the IC50 turn out when `COC(=O)c1cc(Nc2nccc(-c3ccn([C@H](CO)c4ccc(Cl)c(F)c4)c(=O)c3)n2)ccn1` [Example 270, (S)-methyl 4-((4-(1-(1-(4-chloro-3-fluorophenyl)-2-hydroxyethyl)-2-oxo-1,2-dihydropyridin-4-yl)pyrimidin-2-yl)amino)picolinate] was run?
Its IC50 is 22 nM.
